Measured values: US7759499B2, “Compounds as inhibitors of hepatitis C virus NS3 serine protease” (Schering Corporation, priority 2004, dated 2010)

Protein sequences, listed by entry. Tags and fused reporters are not part of them. Residues count along the entry.
UniProt P27958, 1027-1657: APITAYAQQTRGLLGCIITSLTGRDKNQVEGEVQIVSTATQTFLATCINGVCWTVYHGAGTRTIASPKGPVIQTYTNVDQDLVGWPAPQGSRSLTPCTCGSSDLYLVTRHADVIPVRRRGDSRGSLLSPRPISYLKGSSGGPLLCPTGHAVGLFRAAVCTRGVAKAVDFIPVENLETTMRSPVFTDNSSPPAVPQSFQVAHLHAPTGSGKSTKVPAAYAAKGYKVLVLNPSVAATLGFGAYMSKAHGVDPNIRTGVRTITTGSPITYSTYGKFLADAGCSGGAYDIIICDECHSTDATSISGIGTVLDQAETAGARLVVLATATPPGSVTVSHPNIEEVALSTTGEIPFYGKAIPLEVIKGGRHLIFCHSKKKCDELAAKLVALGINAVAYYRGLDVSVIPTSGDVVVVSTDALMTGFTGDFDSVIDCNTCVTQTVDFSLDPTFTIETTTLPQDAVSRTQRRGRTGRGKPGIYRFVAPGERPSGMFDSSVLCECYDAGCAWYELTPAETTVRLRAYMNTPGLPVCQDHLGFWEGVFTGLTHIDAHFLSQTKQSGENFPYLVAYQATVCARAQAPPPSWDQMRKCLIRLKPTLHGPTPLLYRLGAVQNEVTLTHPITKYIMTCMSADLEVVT
UniProt P27958, 1658-1711: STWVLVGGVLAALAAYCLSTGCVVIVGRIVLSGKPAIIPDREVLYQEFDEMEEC

Target: Recombinant heterodimeric HCV NS3/NS4A protease (strain 1a) (Hepatitis C virus genotype 1a, UniProt P27958)
Test: Spectrophotometric assay for HCV protease inhibitory activity
Format: biochemical
Conditions: Table 1, range

| Compound | Ki [µM] |
| --- | --- |
| C=CCNC(=O)C(=O)C(CCCC)NC(=O)[C@@H]1[C@@H]2[C@H](CN1C(=O)[C@@H](NC(=O)N[C@H](CN(C)S(=O)(=O)N(C)C)C1CCCCC1)C(C)(C)C)C2(C)C (stereo partly drawn) [Compound 10064] | ≤ 0.075 |
| C#CCCC(NC(=O)[C@@H]1[C@@H]2[C@H](CN1C(=O)[C@@H](NC(=O)N[C@H](CN(C)S(=O)(=O)N(C)C(=O)OCc1ccccc1)C(C)(C)C)C1CCCCC1)C2(C)C)C(=O)C(=O)NCC=C (stereo partly drawn) [Compound 10083] | ≤ 0.075 |
| C#CCCC(NC(=O)[C@@H]1[C@@H]2[C@H](CN1C(=O)[C@@H](NC(=O)N[C@H](CN(C)S(=O)(=O)N1CCCC1)C(C)(C)C)C(C)(C)C)C2(C)C)C(=O)C(=O)NCC=C (stereo partly drawn) [Compound 10098] | ≤ 0.075 |
| C=CCNC(=O)C(=O)C(CCCC)NC(=O)[C@@H]1[C@@H]2[C@H](CN1C(=O)[C@@H](NC(=O)N[C@H](CN(C)S(=O)(=O)N(C)C)C(C)(C)C)C1Cc3ccccc3C1)C2(C)C (stereo partly drawn) [Compound 10058] | ≤ 0.075 |
| C#CCCC(NC(=O)[C@@H]1[C@@H]2[C@H](CN1C(=O)[C@@H](NC(=O)N[C@H](CN(C)S(=O)(=O)N(C)C(=O)OC(C)(C)C)C(C)(C)C)C(C)(C)C)C2(C)C)C(=O)C(=O)NCC=C (stereo partly drawn) [Compound 10087] | ≤ 0.075 |
| C=CCNC(=O)C(=O)C(CC1CCC1)NC(=O)[C@@H]1[C@@H]2[C@H](CN1C(=O)[C@@H](NC(=O)N[C@H](CN(C)S(=O)(=O)N(C)C(=O)OCc1ccccc1)C(C)(C)C)C1CCCCC1)C2(C)C (stereo partly drawn) [Compound 10076] | ≤ 0.075 |

Same assay, conditions: Table 2, range

| Compound | Ki [µM] |
| --- | --- |
| C=CCNC(=O)C(=O)C(CC1CC1)NC(=O)[C@@H]1[C@@H]2[C@H](CN1C(=O)[C@@H](NC(=O)N[C@H](CN(C)S(=O)(=O)c1cccc(F)c1)C(C)(C)C)C(C)(C)C)C2(C)C (stereo partly drawn) [Compound 11343] | ≤ 0.075 |
| C=CCNC(=O)C(=O)C(CCCC)NC(=O)[C@@H]1[C@@H]2[C@H](CN1C(=O)[C@@H](NC(=O)N[C@H](CN(C)S(=O)(=O)c1sc(C)nc1C)C1CCCCC1)C1CCCCC1)C2(C)C (stereo partly drawn) [Compound 11242] | ≤ 0.075 |
| C=CCNC(=O)C(=O)C(CCC(F)(F)F)NC(=O)[C@@H]1[C@@H]2[C@H](CN1C(=O)[C@@H](NC(=O)N[C@H](CN(C)S(=O)(=O)c1cccs1)C(C)(C)C)C1CCCC1)C2(C)C (stereo partly drawn) [Compound 11226] | ≤ 0.075 |
| C=CCNC(=O)C(=O)C(CC=C)NC(=O)[C@@H]1[C@@H]2[C@H](CN1C(=O)[C@@H](NC(=O)NC1(CN(C)S(C)(=O)=O)CCCCC1)C1CCCCC1)C2(C)C (stereo partly drawn) [Compound 11068] | ≤ 0.075 |
| C=CCNC(=O)C(=O)C(CCCC)NC(=O)[C@@H]1[C@@H]2[C@H](CN1C(=O)[C@@H](NC(=O)N[C@H](CN(C)S(=O)(=O)c1cccs1)C1CCCCC1)C1CCCCC1)C2(C)C (stereo partly drawn) [Compound 11239] | ≤ 0.075 |
| C=CCNC(=O)C(=O)C(CC1CCC1)NC(=O)[C@@H]1[C@@H]2[C@H](CN1C(=O)[C@@H](NC(=O)N[C@H](CN(C)S(=O)(=O)c1ccccn1)C(C)(C)C)C1(C)CCCCC1)C2(C)C (stereo partly drawn) [Compound 11368] | ≤ 0.075 |
| CC(C)(C)[C@H](NC(=O)N[C@H](CN(CC1CC1)S(=O)(=O)c1cccs1)C(C)(C)C)C(=O)N1C[C@H]2[C@@H]([C@H]1C(=O)NC(CC1CCC1)C(=O)C(N)=O)C2(C)C (stereo partly drawn) [Compound 11245] | ≤ 0.075 |
| CCS(=O)(=O)N(C)C[C@@H](NC(=O)N[C@H](C(=O)N1C[C@H]2[C@@H]([C@H]1C(=O)NC(CC1CC1)C(=O)C(N)=O)C2(C)C)C(C)(C)C)C1CCCCC1 (stereo partly drawn) [Compound 11156] | ≤ 0.075 |
| C=CCNC(=O)C(=O)C(CC1CC1)NC(=O)[C@@H]1[C@@H]2[C@H](CN1C(=O)[C@@H](NC(=O)N[C@H](CN(C)S(=O)(=O)C(C)C)C(C)(C)C)C(C)(C)C)C2(C)C (stereo partly drawn) [Compound 11111] | ≤ 0.075 |
| C=CCNC(=O)C(=O)C(CCCC)NC(=O)[C@@H]1[C@@H]2[C@H](CN1C(=O)[C@@H](NC(=O)N[C@H](CN(C)S(=O)(=O)c1cccs1)C(C)(C)C)C1CCCC1)C2(C)C (stereo partly drawn) [Compound 11228] | ≤ 0.075 |
| CCCC(NC(=O)[C@@H]1[C@@H]2[C@H](CN1C(=O)[C@@H](NC(=O)N[C@H](CN(C)S(=O)(=O)c1cccs1)[C@@H](C)CC)C(C)(C)C)C2(C)C)C(=O)C(=O)NCC(F)(F)F (stereo partly drawn) [Compound 11093] | > 0.25 |

Same assay, conditions: Table 4, range

| Compound | Ki [µM] |
| --- | --- |
| CC(C)(C)[C@H](NC(=O)N[C@H](CNC(=O)c1ccccn1)C(C)(C)C)C(=O)N1C[C@H]2[C@@H]([C@H]1C(=O)NC(CC1CC1)C(=O)C(N)=O)C2(C)C (stereo partly drawn) [Compound 13004] | ≤ 0.075 |

Same assay, conditions: Table 5, range

| Compound | Ki [µM] |
| --- | --- |
| COC(=O)NC[C@@H](NC(=O)N[C@H](C(=O)N1C[C@H]2[C@@H]([C@H]1C(=O)NC(CC1CCC1)C(=O)C(N)=O)C2(C)C)C(C)(C)C)C(C)C (stereo partly drawn) [Compound 14010] | ≤ 0.075 |

Same assay, conditions: Table 5A, range

| Compound | Ki [µM] |
| --- | --- |
| CCCC(NC(=O)[C@@H]1[C@@H]2[C@H](CN1C(=O)[C@@H](NC(=O)N[C@H](CN(C)S(=O)(=O)c1cccnc1)C(C)(C)C)C1(C)CCCCC1)C2(C)C)C(=O)C(=O)NC1CC1 (stereo partly drawn) [Compound 11411] | ≤ 0.075 |
| C=CCNC(=O)C(=O)C(CCC)NC(=O)[C@@H]1[C@@H]2[C@H](CN1C(=O)[C@@H](NC(=O)N[C@H](CN(C)S(=O)(=O)c1cccnc1)C(C)(C)C)C1(C)CCCCC1)C2(C)C (stereo partly drawn) [Compound 11410] | ≤ 0.075 |
| CCCCC(NC(=O)[C@@H]1[C@@H]2[C@H](CN1C(=O)[C@@H](NC(=O)N[C@H](CN(C)S(=O)(=O)CC)C(C)(C)C)C1Cc3ccccc3C1)C2(C)C)C(=O)C(=O)NCc1nccs1 (stereo partly drawn) [Compound 11418] | ≤ 0.075 |
| C=CCNC(=O)C(=O)C(CCCC)NC(=O)[C@@H]1[C@@H]2[C@H](CN1C(=O)[C@@H](NC(=O)N[C@H](CN(C)S(=O)(=O)c1cccnc1)C(C)(C)C)C1(C)CCCCC1)C2(C)C (stereo partly drawn) [Compound 11405] | ≤ 0.075 |

Same assay, conditions: Table 6

| Compound | Ki [µM] |
| --- | --- |
| CCCC(NC(=O)[C@@H]1[C@@H]2[C@H](CN1C(=O)[C@@H](NC(=O)N[C@H](CN(C)S(=O)(=O)c1cccnc1)C(C)(C)C)C1(C)CCCCC1)C2(C)C)C(=O)C(=O)NC1CC1 (stereo partly drawn) [Compound 11411] | 0.005 |
| C=CCNC(=O)C(=O)C(CCC)NC(=O)[C@@H]1[C@@H]2[C@H](CN1C(=O)[C@@H](NC(=O)N[C@H](CN(C)S(=O)(=O)c1cccnc1)C(C)(C)C)C1(C)CCCCC1)C2(C)C (stereo partly drawn) [Compound 11410] | 0.009 |
| CCCCC(NC(=O)[C@@H]1[C@@H]2[C@H](CN1C(=O)[C@@H](NC(=O)N[C@H](CN(C)S(=O)(=O)CC)C(C)(C)C)C1Cc3ccccc3C1)C2(C)C)C(=O)C(=O)NCc1nccs1 (stereo partly drawn) [Compound 11418] | 0.007 |
| C=CCNC(=O)C(=O)C(CCCC)NC(=O)[C@@H]1[C@@H]2[C@H](CN1C(=O)[C@@H](NC(=O)N[C@H](CN(C)S(=O)(=O)c1cccnc1)C(C)(C)C)C1(C)CCCCC1)C2(C)C (stereo partly drawn) [Compound 11405] | 0.004 |
